{
  "sequences": {"note": "The chains behind the UniProt entries cited, without tags or fusion partners.", "UniProt Q8WNX7, entry or part of it": "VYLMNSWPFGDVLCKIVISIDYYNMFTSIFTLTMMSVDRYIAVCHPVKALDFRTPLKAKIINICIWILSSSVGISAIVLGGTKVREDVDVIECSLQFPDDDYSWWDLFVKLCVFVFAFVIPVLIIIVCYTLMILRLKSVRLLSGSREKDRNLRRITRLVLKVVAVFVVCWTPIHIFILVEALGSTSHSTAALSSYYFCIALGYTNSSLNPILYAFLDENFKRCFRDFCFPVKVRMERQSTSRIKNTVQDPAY"},
  "source": "ChEMBL document CHEMBL1133607",
  "about": "“Nonpeptide analogues of dynorphin A(1-8): design, synthesis, and pharmacological evaluation of kappa-selective agonists” (J Med Chem, 2000)",
  "biological_target": "Kappa opioid receptor (Sus scrofa) (UniProt Q8WNX7)",
  "experiment": "Antinociceptive activity by measuring effective dose after 10 mg/kg of nor-BNI administered subcutaneously 10 min before agonist administered in mouse; Full antagonism of the pharmacological effect produced by the ED50 dose of the agonist",
  "settings": "filed as antagonist",
  "data": [
    {"smiles": "CN(C(=O)Cc1ccc(Cl)c(Cl)c1)C1CCCCC1N1CCCC1.Oc1ccc2c3c1OC1c4[nH]c5c(c4C[C@@]4(O)C(C2)N(CC2CC2)CCC314)C[C@@]1(O)[C@H]2Cc3ccc(O)c4c3C1(CCN2CC1CC1)C5O4", "note": "(stereo partly specified)", "values": [
      {"measurement": "ED50", "value": "Antagonist"}
    ]}
  ]
}
